# Measured affinities in a library of Ab-14 heavy chain variants

Values reported by Li et al. 2023, doi:10.1038/s41467-023-39022-2 (FLAb copy).

All variants were tested on one target, the spike HR2 peptide PDVDLGDISGINAS (SARS-CoV-2).

Parent: Ab-14, a human scFv built as VH, three GGGGS repeats, VL. Only the CDRs of the heavy chain vary.
VH: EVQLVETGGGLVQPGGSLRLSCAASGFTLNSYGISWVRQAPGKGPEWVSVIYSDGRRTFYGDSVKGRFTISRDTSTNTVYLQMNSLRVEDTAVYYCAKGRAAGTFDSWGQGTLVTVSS
VL: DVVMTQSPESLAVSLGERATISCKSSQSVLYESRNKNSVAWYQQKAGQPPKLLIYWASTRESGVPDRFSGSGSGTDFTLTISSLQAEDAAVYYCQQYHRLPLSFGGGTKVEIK

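Phage display of a naive human antibody library on the peptide gave the parent. These sequences belong to a second round, designed from the earlier measurements on random variants of the parent. Their group label is 14H_En_Gibbs (En: ensemble of fine-tuned language models; Gibbs: Gibbs sampling). Affinity was read by AlphaSeq, a pooled yeast mating assay with surface-displayed partners. The frequency of each diploid, read from paired DNA barcodes, reflects how well the two displayed proteins bind. The ratio of observed to expected reads was calibrated, replicate by replicate, on BCL2-family standards whose Kd was known from biolayer interferometry. Mating was done six times.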

Each variant is given by its three heavy chain CDRs, as the data file delimits them; those of the parent are GFTLNSYGIS, VIYSDGRRTFYGDSVK, GRAAGTFDS. Affinities are written as log10 Kd with Kd in nM; a lower number is a better binder. "ND" marks a missing value. The strain was present, yet no cells mated with the target were sequenced in that replicate, which points to weak or no binding. Values of this round are not directly comparable with the first-round values of the same sequences. In the paper, a design with two or fewer of six values counts as a poor binder. Of ten entries with the parent sequence, four were seen in most replicates (averages 0.34 to 2.37), three in one and three in none, so single entries are noisy. Nonspecific signal, from three strains lacking the peptide, appeared in 1% of pairings of all heavy chain designs, centred on 2.08 (5% of these signals below 0.84); values are not corrected for it. The control count says in how many pairings with the empty strains this scFv gave a signal, with their mean in brackets.

CDR-H1	CDR-H2	CDR-H3	log10 Kd, replicates	empty controls
GFNLDECGIS	VIYADGRRQMYANSVK	GEIGGTFLM	0.96 0.93 1.71 0.89 0.90 1.10	0 of 18
GFELQEYGIS	VIYADGARTAYVDNVK	GDAVGIFHV	0.19 0.38 0.51 0.49 0.34 0.25	1 of 18 (2.85)
GFDLDEQGIS	VIYADGQRTAYADQVK	GMIGDGMRT	ND ND ND ND ND ND	0 of 18
GFTLDEYGIS	VIYADGVRVEYADSVK	GSHGLYVMV	ND ND ND ND ND ND	0 of 18
GFDLGEYGIS	VIYADGRRKGYSDAVK	GINVINKTV	ND ND ND ND ND ND	0 of 18
GFNLEEVGIS	VIYADGLRSAYVDAVK	GGVVDVDFV	ND ND ND ND ND ND	0 of 18
GFDLKEQGIS	VIYADGMRTFYTDKVK	GQNSNGFDM	ND ND ND ND ND ND	0 of 18
GFNLDEYGIS	VIYADGHRTQYAQSVK	GMNNGYIAG	ND ND ND ND ND ND	0 of 18
GYDIEQYGIS	VIYADGIRTVYDDSVK	GHNGDTFYV	ND ND ND ND ND ND	0 of 18
GGDIQDYGIS	VIYADGQRASYADEVK	GNIGGIFST	ND ND ND ND ND ND	0 of 18
GFQLDEFGIS	VIYADGKRSSYVDDVK	GETTGIFSV	ND ND ND ND ND ND	0 of 18
GFDIQEYGIS	VIYADGMRVAYTNSVK	GTQSGSNIE	ND ND ND ND ND ND	0 of 18
GFDLNEYGIS	VIYADGMRVRYANNFK	GYLDKTGMV	ND ND ND ND ND ND	0 of 18
GFDLTEYGIS	VIYADGVRTHYADDVK	GKSDGTNMA	ND ND ND ND ND ND	0 of 18
GFDLEEYGIS	VIYADGRRVSYAQSVK	GVYSGTHYV	ND ND ND ND ND ND	0 of 18
FFKLEDYGIS	VIYADGKRTAYEQNVK	GQIAGTFDV	ND ND ND 0.20 ND 1.08	0 of 18
GFSLDEYGIS	VIYADGMRTAYTQNVK	GLMQQGRTM	ND ND ND ND ND ND	0 of 18
GFGLSEYGIS	VIYADGVRASYADNVK	GFNYGQDIL	ND ND ND ND ND ND	0 of 18
GFDLGEYGIS	VIYADGQRAAYAQQFK	GEAGGAFDL	-0.77 -0.34 -0.49 -0.80 -0.18 -0.09	0 of 18
GFNLDEYGIS	VIYADGTRTNYLDTVK	GVTGGTFIM	ND ND ND ND ND ND	0 of 18
GFSLDEYGIS	VIYADGVRRSFIDNVK	GFNGEVSIV	ND ND ND ND ND ND	0 of 18
GFSLEEYGIS	VIYADGKRDVYADSVK	GHGSGWFDI	0.27 0.08 0.43 0.04 0.11 0.36	3 of 18 (1.73)
GFELSEYGIS	VIYADGHRSFVTQDVK	GQNGGAFNV	ND ND ND ND ND ND	0 of 18
GFILDEYGIS	VIYADGQRSAYKDSVK	GVDGTNGVI	ND ND ND ND ND ND	0 of 18
GFDLNEYGIS	VIYADGTRKSYADNVK	GDYHSVVSY	ND ND ND ND ND ND	1 of 18 (2.69)
GFGLMEYGIS	VIYADGMRTSYSNSFK	GALAGTFDE	ND ND ND 2.04 ND ND	0 of 18
GFNLDEYGIS	VIYADGQRTAYAKNVK	GTTGMKRVV	ND ND ND ND ND ND	0 of 18
GFQIDEYGIS	VIYADGKRSMYTDKVK	GVDADTMMV	ND ND ND ND ND ND	0 of 18
GFPIDEYGIS	VIYADGRRTVYSDNVK	GNYGLSIAV	0.27 1.25 0.56 0.17 0.29 0.09	0 of 18
GFDLNEYGIS	VIYADGVRVAYQNQVK	GNIIGSFTF	ND ND ND ND ND ND	0 of 18
GFDLEEMGIS	VIYADGSRKVYQDAVK	GGVSGDFDK	ND 2.51 ND 2.01 1.85 1.35	0 of 18
KFDIEHYGIS	VIYADGKRTGYSNAVK	GWQAGTFNT	-0.05 0.31 -0.45 -0.27 -0.41 -0.67	1 of 18 (0.69)
GFDLENYGIS	VIYADGIRKVYDQSVK	GQMGGTFTV	ND ND ND ND ND ND	0 of 18
GPSLDEYGIS	VIYADGVRQFYADDVK	GGIAGQVNY	ND ND ND ND ND ND	0 of 18
GDALNEYGIS	VIYADGFRAAYTDKVK	GVTVGNFSS	ND ND ND ND ND 3.02	0 of 18
GKGLDEYGIS	VIYADGVRKAYQQSVK	GQVGFFIRV	ND ND ND ND ND ND	0 of 18
GFDLGEYGIS	VIYADGQRRAYIDAVK	GHSSVDYLA	3.90 ND ND ND ND ND	1 of 18 (2.46)
GFDINEYGIS	VIYADGMRTAYVQQVK	GQHLGSVEV	ND ND ND 2.88 ND ND	0 of 18

Top 5 of the variants detected in all replicates, tightest first:

CDR-H1	CDR-H2	CDR-H3	log10 Kd, replicates	empty controls
GFDLGEYGIS	VIYADGQRAAYAQQFK	GEAGGAFDL	-0.77 -0.34 -0.49 -0.80 -0.18 -0.09	0 of 18
KFDIEHYGIS	VIYADGKRTGYSNAVK	GWQAGTFNT	-0.05 0.31 -0.45 -0.27 -0.41 -0.67	1 of 18 (0.69)
GFSLEEYGIS	VIYADGKRDVYADSVK	GHGSGWFDI	0.27 0.08 0.43 0.04 0.11 0.36	3 of 18 (1.73)
GFELQEYGIS	VIYADGARTAYVDNVK	GDAVGIFHV	0.19 0.38 0.51 0.49 0.34 0.25	1 of 18 (2.85)
GFPIDEYGIS	VIYADGRRTVYSDNVK	GNYGLSIAV	0.27 1.25 0.56 0.17 0.29 0.09	0 of 18